Measured values taken from paper PMC6797804, “Histone H3K23-specific acetylation by MORF is coupled to H3K14 acylation” (Nature Communications, 2019).
Changes are numbered by the printed parent chain.

Legend:
[1] = molecular target: T1, MORFDPF (residues 211–322) (Homo sapiens, UniProt Q8WYB5); conditions: WT MORFDPF; peer review file; ref Klein et al., Structure 2017;25(4):650–654.e2; read-out: Kd (affinity) as quoted by reviewer; cited from earlier work
T1 construct: Unlabeled and ^15N-labeled WT and mutated MORFDPF (residues 211–322) were expressed in E. coli Rosetta2 (DE3) pLysS cells; GST (N); made in house; host or cells: E. coli Rosetta2 (DE3) pLysS
T1 sequence (Q8WYB5 211-322): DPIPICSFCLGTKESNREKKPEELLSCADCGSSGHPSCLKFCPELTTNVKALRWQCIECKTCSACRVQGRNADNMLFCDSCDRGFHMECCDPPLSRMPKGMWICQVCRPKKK

MORFDPF F287A = molecular target: T2, MORFDPF F287A (Homo sapiens, UniProt Q8WYB5, F287A); assay: NMR 1H,15N HSQC titration, MORFDPF F287A; assay type: binding
T2 construct: Unlabeled and ^15N-labeled WT and mutated MORFDPF (residues 211–322) were expressed in E. coli Rosetta2 (DE3) pLysS cells; GST (N); made in house; host or cells: E. coli Rosetta2 (DE3) pLysS
T2 sequence (Q8WYB5 211-322 F287A): T1 sequence (Q8WYB5 211-322) with F77A
Method: MORFDPF mutants (F287A, D289A, F218A, R276E, R306E/K309E, and F287A/R306E/K309E) were generated using the Quick Change site-directed lightning mutagenesis protocol (Stratagene) (Supplementary Table 2). Unlabeled and ^15N-labeled WT and mutated MORFDPF (residues 211–322) were expressed in E. coli Rosetta2 (DE3) pLysS cells grown in LB or NH4Cl (Sigma-Aldrich) minimal media supplemented with 50 µM ZnCl2. After induction with IPTG (final concentration 0.5 mM) (Gold Biotechnology) for 16 h at 18 °C, cells were harvested via centrifugation and lysed by freeze-thaw followed by sonication. […]
^1H,^15N HSQC spectra were collected at 298 K on Varian INOVA 600 MHz and 900 MHz spectrometers. The binding was monitored by titrating H3 peptides (residues 1–19) into NMR samples containing 0.1–0.25 mM uniformly ^15N-labeled WT or mutated MORFDPF in 1×PBS pH 6.5 buffer supplemented with 5 mM DTT and 8–10% D2O. NMR data were processed and analyzed as previously described. The Kd values were determined by a nonlinear least-squares analysis in Kaleidagraph using the following equation:1 Δδ=ΔδmaxL+P+Kd−L+P+Kd^2−4PL∕2P, where [L] is concentration of the peptide, [P] is concentration of the protein, Δδ is the observed chemical shift change, and Δδmax is the normalized chemical shift change at saturation. […]

MORFDPF F218A = molecular target: T3, MORFDPF F218A (Homo sapiens, UniProt Q8WYB5, F218A); assay: Tryptophan fluorescence binding, MORFDPF F218A; set-up: unit not given beside the values; conditions: source data Fig. 2c, MORF-DPF F218A, unit not given
T3 construct: Unlabeled and ^15N-labeled WT and mutated MORFDPF (residues 211–322) were expressed in E. coli Rosetta2 (DE3) pLysS cells; GST (N); made in house; host or cells: E. coli Rosetta2 (DE3) pLysS
T3 sequence (Q8WYB5 211-322 F218A): T1 sequence (Q8WYB5 211-322) with F8A
Method: Spectra were recorded at 25 °C on a Fluoromax-3 spectrofluorometer (HORIBA).

- Kd (MORFDPF F287A; MORFDPF F287A, NMR HSQC titration, 0.1–[…] 15N-labeled protein, peptide residues 1–19, PBS pH 6.5, 5 mM DTT, 8–10% D2O, 298 K, ± SD): 3500 ± 1400 µM
- decrease in binding of MORFDPF F287A compared to WT protein (MORFDPF F287A; NMR titration, F287A vs WT, same peptide): ~ 10^3 fold
- Kd (MORFDPF F218A; Run1): 3.5
- Kd (MORFDPF F218A; Run2): 2.6
- Kd (MORFDPF F218A; Run3): 1.6
Substance: H3K14ac: H3 peptide pre-acetylated at Lys14; residues 1–19 (binding), 1–29 (HAT)
- Kd [1]: 1.9 µM
